Laboratory results as given in patent US20210253518A1, “KINASE INHIBITOR” (NISSAN CHEMICAL CORPORATION, priority 2018, published 2021).

Chains of the proteins cited; added tags and fusions are not shown. Residues count along the entry.
UniProt O95835, 589-1130 limits assumed: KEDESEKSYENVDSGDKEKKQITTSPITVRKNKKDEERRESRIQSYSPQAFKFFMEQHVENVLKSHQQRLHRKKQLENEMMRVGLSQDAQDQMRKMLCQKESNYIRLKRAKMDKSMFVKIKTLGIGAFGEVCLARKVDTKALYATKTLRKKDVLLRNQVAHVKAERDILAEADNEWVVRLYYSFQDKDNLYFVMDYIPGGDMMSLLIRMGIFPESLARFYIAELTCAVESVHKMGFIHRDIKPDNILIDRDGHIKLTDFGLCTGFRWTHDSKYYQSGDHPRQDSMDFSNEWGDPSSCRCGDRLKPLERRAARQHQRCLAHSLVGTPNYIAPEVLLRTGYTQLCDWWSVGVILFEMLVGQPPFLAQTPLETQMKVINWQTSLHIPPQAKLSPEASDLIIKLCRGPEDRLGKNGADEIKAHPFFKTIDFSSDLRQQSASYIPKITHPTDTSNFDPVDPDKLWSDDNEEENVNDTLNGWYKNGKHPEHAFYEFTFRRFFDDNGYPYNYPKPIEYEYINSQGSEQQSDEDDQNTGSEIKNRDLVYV
UniProt Q9NRM7, 553-1088 limits assumed: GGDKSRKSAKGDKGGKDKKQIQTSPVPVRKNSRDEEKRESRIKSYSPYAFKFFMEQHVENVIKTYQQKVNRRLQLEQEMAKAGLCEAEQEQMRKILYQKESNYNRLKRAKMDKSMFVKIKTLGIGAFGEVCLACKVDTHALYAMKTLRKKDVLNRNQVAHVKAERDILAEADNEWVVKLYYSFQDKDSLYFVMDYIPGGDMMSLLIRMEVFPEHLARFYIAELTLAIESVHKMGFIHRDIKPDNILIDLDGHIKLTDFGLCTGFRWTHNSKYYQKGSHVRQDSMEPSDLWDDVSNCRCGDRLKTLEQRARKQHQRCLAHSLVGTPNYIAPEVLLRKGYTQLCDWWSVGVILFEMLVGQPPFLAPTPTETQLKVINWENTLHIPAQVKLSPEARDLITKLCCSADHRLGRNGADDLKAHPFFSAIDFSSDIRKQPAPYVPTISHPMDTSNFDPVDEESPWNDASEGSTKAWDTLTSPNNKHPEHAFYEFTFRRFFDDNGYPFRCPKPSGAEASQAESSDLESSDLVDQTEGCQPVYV

Legend:
[1] = tested on: YAP (phospho-S127 and total); assay: YAP phosphorylation inhibitory action in SKOV3 cells (HTRF, YAP-total kit / YAP phospho-S127 kit); conditions: 2D condition, 10 μM, 1 hr, Non-treatment as 100%
Experimental: Human ovarian cancer cell line SKOV3 (manufactured by DS Pharma Biomedical Co., Ltd) was precultured (single layer culture) in a 15% FBS-containing McCoy's 5a medium (manufactured by Sigma Ltd. Aldrich). The above-mentioned cells in the logarithmic growth phase were washed with PBS, a 0.25% (w/v) trypsin-1 mmol/L ethylenediaminetetraacetic acid (EDTA) solution (manufactured by Fujifilm Wako Pure Chemical Corporation) was added, and adherent cells were detached by incubating at 37° C. for 3 min. The above-mentioned medium was added and the mixture was centrifuged and resuspended in the same medium.
According to the method of patent document (WO 2014/017513), a composition of 10% FBS-containing DMEM medium (Phenol-red free, manufactured by FUJIFILM Wako Pure Chemical Corporation) containing 0.015% (w/v) deacylated gellan gum (KELCOGEL CG-LA, manufactured by SANSHO Co., Ltd.) was prepared using FCeM-series Preparation Kit (manufactured by FUJIFILM Wako Pure Chemical Corporation). […] The next day, the wavelengths at 665 nm and 615 nm were measured in the HTRF mode of EnVision (manufactured by PerkinElmer).
The obtained signal was calculated as follows. […]

LATS1 = LATS1 (Homo sapiens, UniProt O95835); assay: Kinase Assay method (Fluorospark Kinase/ADP Multi-Assay Kit); conditions: for IC50: read-out: LATS1 IC50, Kinase Assay method, 8 steps 10 μM to 0.3 nM
Experimental: (§1) For compound k-1:B-1 (racemate), GA-002A, GA-002B, GA-005A and GA-005B, inhibitory activity evaluation (calculation of IC50) was performed on LATS1 and LATS2 (manufactured by Carna Biosciences). The activity was measured using the Kinase Assay method described below. The compounds were added such that the test concentration of k-1:B-1 (racemate), GA-002A, GA-002B, GA-005A and GA-005B was in 8 steps (10 μM, 1 μM, 100 nM, […], 10 nM, 3 nM, 1 nM, 0.3 nM) from the final concentration of 10 μM to 0.3 nM.
(§2) As the analysis method of the data, the mean signal of the control well containing reaction components other than the evaluation compound was set to 0% inhibition, the mean signal without enzyme addition was set to 100% inhibition, and the inhibition rate was calculated from the mean signal of 2 wells of each test substance test. IC50 value was calculated using EXSUS (version 7.1.6, manufactured by CAC EXICARE Corporation).
(§3) 2 μL of a compound of the present invention solution at 2.5-fold concentration, 1 μL of substrate at 5-fold concentration (SGKtide: NH2—CKKRNRRLSVA-COOH, manufactured by SignalChem), ATP (manufactured by Sigma-Aldrich), MgCl2 (manufactured by FUJIFILM Wako Pure Chemical Corporation) solution (final concentration 10 μM, 400 μM or 5 mM), and 2 μL of kinase solution at 2.5-fold concentration (final concentration of LATS1 or LATS2 5 μg/mL), each prepared with assay buffer (20 mM HEPES, 0.01% Triton X-100, 2 mM DTT, pH 7.5), were mixed in the wells of a polypropylene 384-well plate (manufactured by Greiner Bio-One, #784900) and reacted at room temperature for 5 hr. Successively, 5 μL detection solution (Fluorospark (registered trade mark)Kinase/ADP Multi-Assay Kit; manufactured by FUJIFILM Wako Pure Chemical Corporation) was added, and the mixture was reacted at room temperature 30 min. Successively, 5 μL of a reaction quenching liquid (Fluorospark (registered trade mark) Kinase/ADP Multi-Assay Kit; manufactured by FUJIFILM Wako Pure Chemical Corporation) was added to discontinue the reaction. Thereafter, the ADP concentration of the reaction solution was quantified by EnSpire (manufactured by PerkinElmer) to detect the kinase reaction.

LATS2 = LATS2 (Homo sapiens, UniProt Q9NRM7); assay: as above; conditions: for IC50: read-out: LATS2 IC50, Kinase Assay method, 8 steps 10 μM to 0.3 nM
Experimental: as §1, §2, §3

CC/C(=N\NC(=O)[C@@H](C)Nc1ccccc1)c1ccc(O)c(C)c1O
phosphorylated YAP (%) [1]: 10% | total YAP (%) [1]: 86% | LARS1 inhibitory rate (%) (LATS1; 100 nM): 101% | LARS1 inhibitory rate (%) (LATS1; 1000 nM): 101% | IC50 (LATS1): 2.67 nM | LARS2 inhibitory rate (%) (LATS2; 100 nM): 91% | LARS2 inhibitory rate (%) (LATS2; 1000 nM): 98% | IC50 (LATS2): 8.23 nM

CC/C(=N\NC(=O)[C@H](C)Nc1ccccc1)c1ccc(O)c(C)c1O
LARS1 inhibitory rate (%) (LATS1; 100 nM): 33% | LARS1 inhibitory rate (%) (LATS1; 1000 nM): 77% | IC50 (LATS1): 481 nM | LARS2 inhibitory rate (%) (LATS2; 100 nM): 9% | LARS2 inhibitory rate (%) (LATS2; 1000 nM): 45% | IC50 (LATS2): 1540 nM
